The target in the assay is T1, CCR2 (Homo sapiens, UniProt P41597).
T1 construct: host or cells: THP-1 (human monocytic cell line)
T1 sequence (P41597 1-360 isoform P41597-2): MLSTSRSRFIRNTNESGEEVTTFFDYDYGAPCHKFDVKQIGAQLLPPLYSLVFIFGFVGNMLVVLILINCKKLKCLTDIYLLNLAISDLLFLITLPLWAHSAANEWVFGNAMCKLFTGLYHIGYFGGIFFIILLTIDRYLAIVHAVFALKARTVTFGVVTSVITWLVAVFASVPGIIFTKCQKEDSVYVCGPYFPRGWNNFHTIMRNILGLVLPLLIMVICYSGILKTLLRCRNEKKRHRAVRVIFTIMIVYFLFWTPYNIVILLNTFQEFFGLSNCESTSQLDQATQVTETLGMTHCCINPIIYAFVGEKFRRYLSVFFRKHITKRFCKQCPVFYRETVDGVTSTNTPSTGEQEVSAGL
The assay can be described thus: MCP-1 Receptor Binding Assay in THP-1 Cells (125I labeled MCP-1). The protocol: Compounds of the invention were subjected to various representative biological tests. […] MCP-1 Receptor Binding Assay in THP-1 Cells
Human monocytic cell line THP-1 cells were obtained from American Type Culture Collection (Manassas, Va., USA). […] The cell density was maintained […].
1 μM cold MCP-1 was used for nonspecific binding.

Drawing on patent US8269015B2, “4-azetidinyl-1-heteroaryl-cyclohexane antagonists of CCR2” (Janssen Pharmaceutica N.V., priority 2009, dated 2012), this text covers IC50 for 3 compounds.

Regarding `O=C(CNC(=O)c1cccc(C(F)(F)F)c1)NC1CN(C2CCC(c3cnccn3)CC2)C1` (single isomer, unassigned) [Example 35a, N-{[1-(4-Pyrazin-2-yl-cyclohexyl)-azetidin-3-ylcarbamoyl]-methyl}-3-trifluoromethyl-benzamide], the IC50 is 0.044 µM. For `CN(C)c1ncc(C2CCC(N3CC(NC(=O)CNC(=O)c4cccc(C(F)(F)F)c4)C3)CC2)cn1` (single isomer, unassigned) [Example 36a, N-({1-[4-(2-Dimethylamino-pyrimidin-5-yl)-cyclohexyl]-azetidin-3-ylcarbamoyl}-methyl)-3-trifluoromethyl-benzamide], the IC50 is 0.031 µM. The same measure for `Nc1cccnc1C1CCC(N2CC(NC(=O)CNC(=O)c3cccc(C(F)(F)F)c3)C2)CC1` (stereo not drawn) [Example 20, N-({1-[4-(3-Amino-pyridin-2-yl)-cyclohexyl]-azetidin-3-ylcarbamoyl}-methyl)-3-trifluoromethyl-benzamide]: 0.043 µM.
